## Binding of CDR-mutated scFvs to a peptide of the spike HR2 region

Target: peptide PDVDLGDISGINAS, taken from heptad repeat 2 (HR2) of SARS-CoV-2 spike.

Parent: Ab-14, a human scFv built as VH, a (GGGGS)3 linker, VL. Only the CDRs of the heavy chain vary.
VH: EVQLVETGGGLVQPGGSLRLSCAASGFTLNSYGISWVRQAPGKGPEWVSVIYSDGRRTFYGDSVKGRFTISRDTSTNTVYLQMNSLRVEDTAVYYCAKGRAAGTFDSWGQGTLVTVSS
VL: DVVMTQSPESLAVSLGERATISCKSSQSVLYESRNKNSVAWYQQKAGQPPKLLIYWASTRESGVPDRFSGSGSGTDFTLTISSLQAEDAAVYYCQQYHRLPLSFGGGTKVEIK

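The starting antibody came from a phage panning campaign against this peptide. The library (AAYL49) carries one to three amino acid substitutions per variant, with no insertions or deletions. The scFvs were displayed on barcoded MATa yeast, the peptide on MATalpha yeast. After mating in shaken culture at 30 °C for 16 h, diploids were selected and their barcode pairs sequenced. Read counts were normalised to the haploid input and turned into Kd by a linear fit to BCL2-family pairs of known affinity, for each replicate. There are three technical replicates.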

Variants are written as CDR1, CDR2 and CDR3 of the heavy chain (limits as in the source). Parent: GFTLNSYGIS, VIYSDGRRTFYGDSVK, GRAAGTFDS. Numbers give log10(Kd / nM), so 0 is 1 nM and 3 is 1 µM. Smaller is tighter. Averages over replicates are reported, and they cover detected replicates only. "nd" marks a missing value. The strain was present, yet no cells mated with the target were sequenced in any replicate, which points to weak or no binding. Three control strains display no target. For library AAYL49, 15% of the pairings with them gave a signal, with a median of 4.06 and one signal in twenty below 2.83, so weak values seen in few replicates may be background. The control count says in how many pairings with the empty strains this scFv gave a signal.

nd (0 of 3 replicates; controls 0 of 9): GFTLNSYGIQ | VIYSDGIRTFYWDSVK | GRAAGTFDS.
4.05 (1 of 3 replicates; controls 1 of 9): GFTLISYGIS | WIYSDGRRTFYGDSVK | GRAAGTFDS.
2.85 (1 of 3 replicates; controls 0 of 9): LFTLNSYGIS | VIYSDGRRTFYGDYVK | GRAAGTWDS.
nd (0 of 3 replicates; controls 2 of 9): GFTQNSYGIS | VIYSDGRQTFYGDNVK | GRAAGTFDS.
nd (0 of 3 replicates; controls 1 of 9): GFIYNSYGIS | VIYSQGRRTFYGDSVK | GRAAGTFDS.
2.52 (3 of 3 replicates; controls 0 of 9): MGTLNSYGIS | VIYSDGRRTFYGDSVK | GRAAGTFDF.
nd (0 of 3 replicates; controls 0 of 9): GFTLNSYGIT | VIYSCGRRTFYGDSVK | GRAAGTQDS.
6.22 (1 of 3 replicates; controls 2 of 9): GFTLNSYGIA | VIGSDGRRTFYGDSVK | GRAARTFDS.
nd (0 of 3 replicates; controls 0 of 9): GFTLNSYGIS | VIYDDGRRTFYGRSVK | GRAAGTFAS.
nd (0 of 3 replicates; controls 0 of 9): GFTLNSYAIS | VIYSDWRWTFYGDSVK | GRAAGTFDS.
3.76 (3 of 3 replicates; controls 4 of 9): GFTLNSYVIS | VIYSDGRRTFYGDSVK | GRAAGFFDS.
nd (0 of 3 replicates; controls 0 of 9): GFTLNSYGIS | VIYSDMRYDFYGDSVK | GRAAGTFDS.
4.62 (3 of 3 replicates; controls 2 of 9): GFTPNSHGIS | VIYSDGRRTFYGDSVK | GRAAGTFDS.
3.79 (2 of 3 replicates; controls 1 of 9): GFTLNSFGYS | VIYSDGRRTFYGDTVK | GRAAGTFDS.
3.09 (1 of 3 replicates; controls 1 of 9): GFTPNSYGIY | VIYSDGRRTFYGDSVK | GSAAGTFDS.
nd (0 of 3 replicates; controls 0 of 9): SFTLNSYGIS | VIYSDGHRFFYGDSVK | GRAAGTFDS.
1.67 (3 of 3 replicates; controls 5 of 9): GFTLNSYGIS | VIYSDGRRTWYGDSVL | GRWAGTFDS.
3.97 (1 of 3 replicates; controls 2 of 9): GFTPNSKGIS | VIYSDGRRTFYGDWVK | GRAAGTFDS.
4.43 (3 of 3 replicates; controls 1 of 9): GWTLNSPGIS | VIYSDGRRTFYGDSVK | GRAAGTYDS.
nd (0 of 3 replicates; controls 1 of 9): GFTLNSYAIS | VIYSDGRRTFYGDSVK | GRAAWTVDS.
nd (0 of 3 replicates; controls 1 of 9): GNTLNSYGIS | VIYSDGRRTFRGDSVK | GRAAGTFDM.
1.58 (3 of 3 replicates; controls 3 of 9): NFTLNSYGIS | VIYSDGRRTYYGDSVK | GRAAGTFDS.
nd (0 of 3 replicates; controls 0 of 9): FFTLNSYGIS | VIYSDGRRTFYGDSVK | GMHAGTFDS.
nd (0 of 3 replicates; controls 2 of 9): GFTLNSYGIS | VIYSRGRRLFYGDSVK | GRMAGTFDS.
nd (0 of 3 replicates; controls 2 of 9): GFTLNSYGIT | VIYSDGRRTFYQDSVK | WRAAGTFDS.
2.94 (3 of 3 replicates; controls 1 of 9): WFTLGSYGIS | VIYQDGRRTFYGDSVK | GRAAGTFDS.
2.84 (1 of 3 replicates; controls 1 of 9): GWTLNSYGIS | SIYSDGRRTFYGGSVK | GRAAGTFDS.
nd (0 of 3 replicates; controls 1 of 9): GFTLSSTGIS | VIYSDGRRTFYGDSVK | GRAAGTFDW.
nd (0 of 3 replicates; controls 1 of 9): GFTLNSYGQS | VIYSDGRRTFYFDPVK | GRAAGTFDS.
4.90 (2 of 3 replicates; controls 5 of 9): GFTLNSYGIQ | VIYSDGRRTFYNDSVK | HRAAGTFDS.
4.52 (1 of 3 replicates; controls 0 of 9): GFTLNSYGIS | VHYSDGRRTFYGDSVK | GRAANTFDS.
2.47 (1 of 3 replicates; controls 0 of 9): GFTLNSYGIK | VIYSDGRRTFYGDSVK | MRAAATFDS.
nd (0 of 3 replicates; controls 1 of 9): GFTLCSPGIS | EIYSDGRRTFYGDSVK | GRAAGTFDS.
nd (0 of 3 replicates; controls 0 of 9): GFTLNSYGIS | VEYSAKRRTFYGDSVK | GRAAGTFDS.

In this assay the parent's reference entry averaged 0.65; its copy inside this library read 4.11 (one replicate of three).

Data: MIT Lincoln Laboratory AlphaSeq set, Engelhart et al. 2022, doi:10.1038/s41597-022-01779-4, as distributed in FLAb.